Test results as given in US20200115357A1, “LIVER X RECEPTORS (LXR) MODULATORS” (Phenex-FXR GmbH, priority 2017, published 2020).

Protein sequences, listed by entry. Tags and fused reporters are not part of them. Chains listed by the source or under a name are the forms on record and can include a tag or linker. Residues count along the entry.
UniProt P55055, 156-460 with tags or gaps DUP175-175: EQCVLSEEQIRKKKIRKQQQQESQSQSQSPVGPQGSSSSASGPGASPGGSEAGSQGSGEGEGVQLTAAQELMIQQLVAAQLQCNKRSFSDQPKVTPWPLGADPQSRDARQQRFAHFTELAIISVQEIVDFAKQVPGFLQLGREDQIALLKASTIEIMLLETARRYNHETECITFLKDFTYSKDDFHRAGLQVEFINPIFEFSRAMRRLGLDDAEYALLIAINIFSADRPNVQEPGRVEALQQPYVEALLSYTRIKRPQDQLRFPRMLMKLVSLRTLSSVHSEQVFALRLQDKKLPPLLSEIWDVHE
UniProt Q13133, 155-447 limits assumed: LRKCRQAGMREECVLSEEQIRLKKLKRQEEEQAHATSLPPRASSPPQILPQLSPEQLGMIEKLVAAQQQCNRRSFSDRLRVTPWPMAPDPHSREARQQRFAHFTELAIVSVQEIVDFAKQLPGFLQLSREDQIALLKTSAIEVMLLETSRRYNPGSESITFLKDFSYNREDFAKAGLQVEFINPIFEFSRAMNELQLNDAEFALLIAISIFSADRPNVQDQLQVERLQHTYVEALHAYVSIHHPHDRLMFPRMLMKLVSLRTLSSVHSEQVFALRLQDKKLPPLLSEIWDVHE

Key:
[1] = target: LXRβ ligand-binding domain (LBD) (Homo sapiens, UniProt P55055, DUP175-175); assay: LXR Gal4 reporter transient transfection assay (M2H), Gal4β LBD; settings: read-out: M2H Gal4β LBD activity range (EC50); HEK293 cells
Experimental: (§1) The tested compounds were usually dissolved, tested and stored as 20 mM stock solutions in DMSO. Since sulfonyl acetic acid derivatives tend to decarboxylate under these conditions, these stock solutions were prepared, tested and stored as 20 mM DMSO stock solutions containing 100 mM trifluoroacetic acid (5 equivalents). Sulfonyl acetic acid derivatives are shelf stable as solid at rt for long time as reported by Griesbrecht et al. (Synlett 2010:374) or Faucher et al. (J. Med. Chem. 2004; 47:18).
(§2) LXR Gal4 Reporter Transient Transfection Assays
(§3) LXRα and LXRβ activity status was determined via detection of interaction with coactivator and corepressor proteins in mammalian two-hybrid experiments (M2H). […] As cofactors, domains of either the steroid receptor coactivator 1 (SRC1; amino acids 552-887; SEQ ID NO:5) or of the corepressor NCoR (amino acids 1903-2312 SEQ ID NO:6) were expressed as fusions to the DNA binding domain of the yeast transcription factor GAL4 (from pCMV-BD; Stratagene). Interaction was monitored via activation of a coexpressed Firefly Luciferase Reporter gene under control of a promoter containing repetitive GAL4 response elements (vector pFRLuc; Stratagene). […] Measurements of luminescence were done in a BMG-Iuminometer.

[2] = target: LXRα ligand-binding domain (LBD) (Homo sapiens, UniProt Q13133); assay: LXR Gal4 reporter transient transfection assay (M2H), Gal4α LBD; settings: read-out: M2H Gal4α LBD activity range (EC50); HEK293 cells
Experimental: as §1, §2, §3

[3] = target: GST-LXRβ ligand-binding domain (Homo sapiens, UniProt P55055, DUP175-175); assay: TR-FRETβ activity assay (LXRβ-LBD / NCoA3 coactivator peptide, prestimulated with 24(S)-25-epoxycholesterol)
Experimental: as §1
Recombinant GST-LXRβ ligand-binding domain (LBD; amino acids 156-461; NP009052; SEQ ID NO:2) was expressed in E. coli and purified via gluthatione-sepharose affinity chromatography. N-terminally biotinylated NCoA3 coactivator peptide (SEQ ID NO:1) was chemically synthesized (Eurogentec). Assays were done in 384 well format (final assay volume of 25 μL/well) in a Tris/HCl buffer (pH 6.8) containing KCl, bovine serum albumin, Triton-X-100 and 1 μM 24(S)-25-epoxycholesterol as LXR-prestimulating agonist. […] The reaction was mixed thoroughly, equilibrated for 1 h at 4° C. and vicinity of LXRβ and coactivator peptide was detected by measurement of fluorescence in a VictorX4 multiplate reader (PerkinElmer Life Science) using 340 nm as excitation and 615 and 665 nm as emission wavelengths. […]

Compound: Cc1cc(C)c(S(=O)(=O)N(Cc2ccc(C(F)(F)F)o2)CC2CCC(c3cccc(C(C)(C)C(=O)O)c3)CC2)c(C)c1 (stereo not shown) [Example 19/1]
- EC50 [1]: 100 to 1000 nM
- EC50 [2]: 100 to 1000 nM
- behavior in FRET assay ([3]; agonist or inverse agonist): ia
- EC50 ([3]; read-out: FRETβ activity range (EC50), 1 μM 24(S)-25-epoxycholesterol as prestimulating agonist): 1000 to 10000 nM
